Reference: patent US20240050447A1, “ABIRATERONE PRODRUGS” (Propella Therapeutics, Inc., priority 2020, published 2024)

Experiment: Single-dose bioavailability study of abiraterone propionate and decanoate, IV and IM, Beagle dogs (Example 5B)
Conditions: for AUC0-28 / AUCINF / AUClast / CL/F / Cmax / Tmax / t1/2: plasma analyte = label, mean
[1] = dogs (N = 3), Group 3: IM abiraterone propionate 197 mg/mL in 90% castor oil/10% benzyl alcohol, 41 mg/kg (table title prints 50 mg/kg)
[2] = dogs (N = 3), Group 4: IM abiraterone propionate 168 mg/mL in 90% corn oil/10% benzyl alcohol, 41 mg/kg (table title prints 50 mg/kg)
[3] = dogs (N = 6), IV 1 mg/kg abiraterone propionate (0.57 mg/mL in 40% HP-b-CD)

AUC0-28 [1]: 15.7 ng·days/mL
AUCINF [1]: 14.9 ng·days/mL
AUClast [1]: 13.0 ng·days/mL
CL/F [1]: 1980 mL/min/kg
Cmax [1]: 7.15 ng/mL
Tmax [1]: 0.111 days
t1/2 [1]: 1.71 days
AUC0-28 [2]: 28.6 ng·days/mL
AUCINF [2]: 29.0 ng·days/mL
AUClast [2]: 28.0 ng·days/mL
CL/F [2]: 1000 mL/min/kg
Cmax [2]: 31.6 ng/mL
Tmax [2]: 0.104 days
t1/2 [2]: 0.983 days
Cmax [3]: 27.1 ng/mL
Tmax [3]: 0.00347 days
abiraterone Cmax, IV abiraterone propionate versus IV abiraterone decanoate (dogs, IV 1 mg/kg propionate vs […] decanoate): ~4 fold
Substance: Abiraterone propionate
